{"source": "patent US9539257B2", "about": "“Method of treating cancer” (NOVARTIS AG, priority 2009, dated 2017)", "key": {"[1]": {"assay": "On-treatment liver chemistry (ALT, TBL, ALP), confirmatory study PGx population, lapatinib plus letrozole phase III trial", "type": "in vivo, human", "settings": "Confirmatory Study PGx Population (N=374)"}, "[2]": {"assay": "On-treatment liver chemistry (ALT, TBL, ALP), exploratory study PGx population, twelve AMBC trials", "settings": "Exploratory Study PGx Population (N=901)"}}}
{"smiles": "CS(=O)(=O)CCNCc1ccc(-c2ccc3ncnc(Nc4ccc(OCc5cccc(F)c5)c(Cl)c4)c3c2)o1", "note": "[lapatinib, N-(3 chloro-4-{[(3-fluorophenyl)methyl]oxy}phenyl)-6-[5-({[2 (methylsulfonyl)ethyl]amino}methyl)-2-furanyl]-4-quinazolinamine bis(4 methylbenzenesulfonate)monohydrate]", "values": [{"measurement": "Maximum on treatment ALP xULN: Mean(SD)", "setting": "[1]", "result": "1.57 (1.55) xULN"}, {"measurement": "Maximum on treatment ALP xULN: Median", "setting": "[1]", "result": 1.08, "unit": "xULN"}, {"measurement": "Maximum on treatment TBL xULN: Mean(SD)", "setting": "[2]", "result": "0.88 (1.08) xULN"}]}
